Data reported in ChEMBL document CHEMBL1136761 (J Med Chem, 2003).

Tests used:
[1] = Ratio between the inhibition of serotonin and dopamine uptake.
[2] = Ratio between the inhibition of norepinephrine and dopamine uptake.

| SMILES | Ratio [1] | Ratio [2] |
| --- | --- | --- |
| O=[N+]([O-])c1ccc(CN2CCC(CCOC(c3ccccc3)c3ccccc3)CC2)cc1 | 1310 | 76 |
| Fc1ccc(C(OCCC2CCN(Cc3ccc4ccccc4c3)CC2)c2ccc(F)cc2)cc1 | 38 | 13 |
| Fc1ccc(CN2CCC(CCOC(c3ccc(F)cc3)c3ccc(F)cc3)CC2)cc1 | 75 | 40 |
| Brc1ccc(CN2CCC(CCOC(c3ccccc3)c3ccccc3)CC2)cc1 | 250 | 101 |
| Fc1ccc(C(OCCC2CCN(Cc3ccc(I)cc3)CC2)c2ccc(F)cc2)cc1 | 75 | 40 |
| O=[N+]([O-])c1ccc(CN2CCC(CCOC(c3ccc(F)cc3)c3ccc(F)cc3)CC2)cc1 | 226 | 33 |
